In BindingDB's records for doi:10.1016/0960-894X(96)00151-5 (1996):

Target: T1, Protein kinase C epsilon type (Homo sapiens, UniProt Q02156)
T1 sequence (Q02156 whole entry): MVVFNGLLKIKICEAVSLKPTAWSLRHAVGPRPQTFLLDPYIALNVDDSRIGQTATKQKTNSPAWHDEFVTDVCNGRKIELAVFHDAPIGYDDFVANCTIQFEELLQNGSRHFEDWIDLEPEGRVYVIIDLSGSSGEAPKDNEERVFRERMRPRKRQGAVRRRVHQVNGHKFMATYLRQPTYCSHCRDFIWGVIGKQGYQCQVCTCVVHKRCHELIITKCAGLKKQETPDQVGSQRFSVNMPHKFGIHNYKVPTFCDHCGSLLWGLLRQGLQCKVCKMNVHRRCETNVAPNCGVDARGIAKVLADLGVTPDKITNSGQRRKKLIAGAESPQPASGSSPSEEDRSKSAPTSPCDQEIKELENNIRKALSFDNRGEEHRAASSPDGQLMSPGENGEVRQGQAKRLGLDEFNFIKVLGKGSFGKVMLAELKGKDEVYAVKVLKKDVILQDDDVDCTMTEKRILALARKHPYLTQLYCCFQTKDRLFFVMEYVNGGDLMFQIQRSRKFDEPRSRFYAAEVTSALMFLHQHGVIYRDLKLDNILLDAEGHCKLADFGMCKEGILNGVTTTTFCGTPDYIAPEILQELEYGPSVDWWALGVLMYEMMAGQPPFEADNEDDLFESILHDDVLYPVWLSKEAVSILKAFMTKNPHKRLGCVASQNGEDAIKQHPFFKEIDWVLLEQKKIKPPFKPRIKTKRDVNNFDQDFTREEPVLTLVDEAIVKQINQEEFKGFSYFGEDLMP
Assay: Inhibition of Protein kinase C epsilon

- IC50: 10 nM
SMILES: O=C(N[C@@H]1CNCCC[C@H]1OC(=O)c1cc(O)c(C(=O)c2c(O)cccc2C(=O)O)c(O)c1)c1ccc(O)cc1 [Acyclic Balanol Analog (-)-1]
